Experiment: Selectivity for alpha4beta2 nAChR over alpha3beta4 nAChR

Work on `CNC(=O)OCCC(C)N(C)C` (stereo unspecified) yielded a Selectivity ratio of 770.

From ChEMBL document CHEMBL1139293 (Bioorg Med Chem Lett, 2009)
